Results from PubChem BioAssay AID588458 (Sanford-Burnham Center for Chemical Genomics, 2011).
The list shows a part of the results, in another mix than the full data. Some salts and complexes are drawn in separate pieces, as the source files them; their charges need not balance. Calls of active or inactive are those of the source. No stated cut-off is given here; in the data, active means inhibition above about 50%; inactive means the rest.

Amino acid sequences for entries named in this document (tags omitted). Residues count along the entry.
UniProt P26358, 504-1616 limits assumed: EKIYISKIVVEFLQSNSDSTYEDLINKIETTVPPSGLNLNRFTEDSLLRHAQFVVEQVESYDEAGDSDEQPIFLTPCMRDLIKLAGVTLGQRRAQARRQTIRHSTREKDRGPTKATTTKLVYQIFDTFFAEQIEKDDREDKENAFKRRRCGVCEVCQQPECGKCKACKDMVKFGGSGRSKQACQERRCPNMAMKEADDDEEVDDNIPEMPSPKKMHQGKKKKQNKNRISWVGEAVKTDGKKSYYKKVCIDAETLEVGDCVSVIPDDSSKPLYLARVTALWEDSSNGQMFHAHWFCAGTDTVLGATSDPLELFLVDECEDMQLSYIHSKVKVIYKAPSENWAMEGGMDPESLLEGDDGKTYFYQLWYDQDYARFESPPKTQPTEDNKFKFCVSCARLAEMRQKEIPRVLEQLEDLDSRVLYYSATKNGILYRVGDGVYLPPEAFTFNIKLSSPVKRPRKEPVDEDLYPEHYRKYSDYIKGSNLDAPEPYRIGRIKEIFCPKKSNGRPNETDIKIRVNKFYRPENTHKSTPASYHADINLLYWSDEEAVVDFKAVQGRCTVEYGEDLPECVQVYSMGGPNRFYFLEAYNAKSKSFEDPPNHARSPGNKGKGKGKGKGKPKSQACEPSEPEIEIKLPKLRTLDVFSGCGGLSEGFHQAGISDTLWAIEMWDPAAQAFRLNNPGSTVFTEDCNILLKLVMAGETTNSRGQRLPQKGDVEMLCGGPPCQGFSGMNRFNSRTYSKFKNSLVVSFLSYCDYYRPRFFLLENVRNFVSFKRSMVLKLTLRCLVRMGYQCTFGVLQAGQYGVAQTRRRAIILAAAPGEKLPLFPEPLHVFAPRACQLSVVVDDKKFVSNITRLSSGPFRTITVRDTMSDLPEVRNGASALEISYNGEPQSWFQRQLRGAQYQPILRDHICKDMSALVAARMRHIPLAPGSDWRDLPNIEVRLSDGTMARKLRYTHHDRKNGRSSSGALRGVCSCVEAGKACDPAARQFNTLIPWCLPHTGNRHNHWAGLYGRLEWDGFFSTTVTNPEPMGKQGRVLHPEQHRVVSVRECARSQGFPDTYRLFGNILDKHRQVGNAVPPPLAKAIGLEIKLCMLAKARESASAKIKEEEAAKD

Molecular target: DNA (cytosine-5)-methyltransferase 1 (Homo sapiens) (UniProt P26358)
Assay: human DNMT1 methyltransferase inhibitors, primary screen, biochemical, molecular beacon, fluorescence, HinP1I cleavage, uHTS (AID 588458)
Conditions: at 10 µM, active compounds read high

Structure (SMILES) | inhibition (reported as % activation of signal)
CP(=O)(Nc1ccccc1F)Oc1ccccc1 (stereo not given) | inactive: 0.54%
CC(C)c1ccc(OP(C)(=O)Nc2ccc(SC(F)(F)F)cc2)cc1 (stereo not given) | inactive: -21.8%
O=[N+]([O-])c1cc([N+](=O)[O-])c(Nc2ccc(Cl)cc2)c([N+](=O)[O-])c1 | inactive: 10.2%
COc1ccc2c(c1O)-c1c(O)c(OC)cc3c1[C@H](C2)[N+](C)(C)CC3.O=[N+]([O-])c1cc([N+](=O)[O-])c([O-])c([N+](=O)[O-])c1[O-] | inactive: 12.6%
O=C(OC1CN2CCC1CC2)c1ccc([N+](=O)[O-])cc1 (stereo not given) | inactive: 0.36%
O=C(OCCN1CCN(CCOCc2ccccc2)CC1)C(O)(c1ccccc1)c1ccccc1 | inactive: 1.71%
CCOC(=O)c1ccc(NP(C)(=O)Oc2ccc(F)cc2)cc1 (stereo not given) | inactive: 2.28%
COc1ccc(OP(C)(=O)Nc2ccc(SC(F)(F)F)cc2)cc1 (stereo not given) | inactive: -0.63%
CP(=O)(Nc1ccccc1)Oc1ccc(F)cc1 (stereo not given) | inactive: 3.59%
O=[N+]([O-])c1cc([N+](=O)[O-])c(OC2CCCCC2O)c([N+](=O)[O-])c1 (stereo not given) | inactive: -1.32%
CCCCCOc1ccc(NP(C)(=O)Oc2ccc(Cl)cc2Cl)cc1 (stereo not given) | inactive: -14%
Cc1c([N+](=O)[O-])cc([N+](=O)[O-])c(Br)c1[N+](=O)[O-] | inactive: 5.88%
CCN(CC)CCCOC(=O)C(O)(c1ccccc1)C1CCCCC1 (stereo not given) | inactive: 0.81%
CN(C)CCOC(=O)C(O)(c1ccccc1)C1CCCCC1 (stereo not given) | inactive: 0.7%
COc1ccc(NP(C)(=O)Oc2ccccc2OC)cc1 (stereo not given) | inactive: 0.65%
COc1ccc(OP(C)(=O)Nc2cccc(Br)c2)cc1 (stereo not given) | inactive: 2.1%
Cc1c(C(c2ccc3c(c2)OCO3)c2c(C)n(C)n(-c3ccccc3)c2=O)c(=O)n(-c2ccccc2)n1C.O=[N+]([O-])c1cc([N+](=O)[O-])c(O)c([N+](=O)[O-])c1 | inactive: 1.13%
O=[N+]([O-])c1ccc(OP2(=O)COCCO2)cc1 (stereo not given) | inactive: 2.2%
O=[N+]([O-])c1cc([N+](=O)[O-])c(NCC2CCS(=O)(=O)C2)c([N+](=O)[O-])c1 (stereo not given) | inactive: 15.7%
Cc1cc(-c2cccc3ccccc23)c(C)cn1.O=[N+]([O-])c1cc([N+](=O)[O-])c(O)c([N+](=O)[O-])c1 | inactive: 1.75%

Structure (SMILES) | inhibition (reported as % activation of signal)
CCOP(C)(=S)SCC(=O)NC(C)(CC)C(=O)O (stereo not given) | inactive: -0.35%
CP(=O)(Nc1ccc(SC(F)(F)F)cc1)Oc1ccc(F)cc1 (stereo not given) | inactive: -2.54%
Cc1ccccc1NP(C)(=O)Nc1ccccc1C | inactive: -2.21%
CP(=O)(Nc1ccc2c(c1)OCCO2)Oc1ccccc1 (stereo not given) | inactive: -2.3%
O=C(OCCCN1CCCC1)C(O)(c1ccccc1)C1CCCCC1 (stereo not given) | inactive: -0.53%
COc1ccccc1OP(C)(=O)Nc1c(C)n(C)n(-c2ccccc2)c1=O (stereo not given) | inactive: -2.46%
CCc1ccc(OP(C)(=O)Nc2cccnc2)cc1 (stereo not given) | inactive: 1.44%
CP(=O)(Oc1ccccc1)N1CCOC1=O (stereo not given) | inactive: -0.65%
COc1ccc(OP(C)(=O)Nc2ccc(Br)cc2)cc1 (stereo not given) | inactive: -0.13%
CCN(CC)CC(O)COC(=O)C(O)(c1ccccc1)C1CCCCC1 (stereo not given) | inactive: -1.72%
CN(C)C(=O)c1c([N+](=O)[O-])cc([N+](=O)[O-])cc1[N+](=O)[O-] | inactive: -3.47%
COc1ccccc1OP(C)(=O)Nc1ccccc1Br (stereo not given) | inactive: 0.04%
CC(C)(C)c1ccc(OP(C)(=O)O)cc1 | inactive: 1.83%
CP(=O)(Nc1ccc(Cl)cc1)Oc1ccc(F)cc1 (stereo not given) | inactive: -2.03%
CCOC(=O)c1ccc(NP(C)(=O)Oc2ccc(Cl)cc2)cc1 (stereo not given) | inactive: 0.05%
CP(=O)(OC12CC3CC(CC(C3)C1)C2)OC12CC3CC(CC(C3)C1)C2 | inactive: -1.78%
COc1ccccc1OP(C)(=O)Nc1ccc(C)c(C)c1 (stereo not given) | inactive: -1.06%
COc1ccc(OP(C)(=O)Nc2ccccc2Br)cc1 (stereo not given) | inactive: -0.7%
Cc1cc(C)cc(OP(C)(=O)Nc2cccc(C(F)(F)F)c2)c1 (stereo not given) | inactive: 0.9%
O=C1C(O)=C([N+](=O)[O-])C(=O)C(O)=C1[N+](=O)[O-] | active: 86.9%

Structure (SMILES) | inhibition (reported as % activation of signal)
CP(=O)(Nc1ccc(Cl)cc1Cl)Oc1ccccc1 (stereo not given) | inactive: 1.71%
CCCCCCCCCCCCCCCC1C[N+](C)(C)CCOP(C)(=O)O1 (stereo not given) | inactive: 7.26%
CP(=O)(OCCOc1ccccc1)OCCOc1ccccc1 | inactive: 3.77%
COc1ccc(OP(C)(=O)Nc2ccccn2)cc1 (stereo not given) | inactive: 14.6%
CN(C)CCOC(=O)C(O)(c1ccccc1)C1CCCC1 (stereo not given) | inactive: 2%
COc1ccccc1OP(C)(=O)Nc1ccc(Br)cc1 (stereo not given) | inactive: 0.91%
COc1ccccc1OP(C)(=O)Nc1ccc(C)cc1C (stereo not given) | inactive: 3.71%
CP(=O)(Nc1ccccn1)Oc1ccccc1 (stereo not given) | inactive: 0.67%
CCc1ccc(OP(C)(=O)O)cc1 | inactive: 1.46%
Cc1c(NP(C)(=O)Oc2ccc(C(C)C)cc2)c(=O)n(-c2ccccc2)n1C (stereo not given) | inactive: 0.96%
O=[N+]([O-])c1cc([N+](=O)[O-])c(Nc2ccccn2)c([N+](=O)[O-])c1 | inactive: -9.71%
CCN(CC)CCCOC(=O)C(O)(c1ccccc1)c1ccccc1 | inactive: 1.31%
O=[N+]([O-])c1ccc2c(c1)C=Nc1ccccc1O2 | inactive: 2.4%
Cc1cccc(C)c1OP(C)(N)=O (stereo not given) | inactive: -1.27%
CC(C)(C)c1ccc(OP(C)(=O)Nc2ccc(SC(F)(F)F)cc2)cc1 (stereo not given) | inactive: -24.1%
O=[N+]([O-])c1cc([N+](=O)[O-])c(Nc2cccnc2)c([N+](=O)[O-])c1 | inactive: 9.3%
Cc1cc(C)cc(OP(C)(N)=O)c1 (stereo not given) | inactive: -3.98%
COc1ccc(OP(C)(=O)Nc2cccc(F)c2)cc1 (stereo not given) | inactive: 2.31%
COc1ccccc1OP(C)(=O)Nc1cc(Cl)ccc1C (stereo not given) | inactive: 4.5%
Cc1ccc(NP(C)(=O)Oc2ccccc2)c(C)c1 (stereo not given) | inactive: 3.86%
